Target: human CYP1A2 (Homo sapiens, UniProt P05177)
Assay: 7-Methoxyresorufin O-demethylation
Format: biochemical

Amino acid sequences for entries named in this document (tags omitted). Residues count along the entry.
UniProt P05177, 2-516 limits assumed: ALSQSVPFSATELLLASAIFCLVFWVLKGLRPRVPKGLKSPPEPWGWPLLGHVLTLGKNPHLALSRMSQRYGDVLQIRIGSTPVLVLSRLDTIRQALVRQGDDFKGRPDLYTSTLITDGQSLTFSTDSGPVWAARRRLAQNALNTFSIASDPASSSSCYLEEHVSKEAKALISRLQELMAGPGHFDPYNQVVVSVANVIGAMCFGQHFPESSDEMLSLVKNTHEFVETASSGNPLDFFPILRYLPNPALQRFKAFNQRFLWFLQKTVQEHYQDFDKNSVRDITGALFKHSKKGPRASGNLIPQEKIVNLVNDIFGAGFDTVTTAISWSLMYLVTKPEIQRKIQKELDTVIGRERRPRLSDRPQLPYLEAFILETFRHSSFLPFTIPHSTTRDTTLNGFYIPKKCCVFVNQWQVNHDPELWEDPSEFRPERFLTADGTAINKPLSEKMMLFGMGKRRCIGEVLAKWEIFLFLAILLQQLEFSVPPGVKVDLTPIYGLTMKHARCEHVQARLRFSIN

SMILES: C#Cc1cc2ccccc2c2ccccc12 [Compound 9-Ephen, 9-ethynylphenanthrene]
- IC50: 400 nM

SMILES: CC#Cc1cc2ccccc2c2ccccc12 [Compound 9-MEPhen, 9-(1-propynyl)phenanthrene]
- IC50: 670 nM

From PMC2839030 (Chemical research in toxicology, 2010)
